From patent US20230192660A1 (priority 2020, published 2023) come the findings set out here.

Sequences of proteins named here, by UniProt entry; tags and fusion partners are left off. Residues count along the entry.
UniProt P07711, 114-333 limits assumed: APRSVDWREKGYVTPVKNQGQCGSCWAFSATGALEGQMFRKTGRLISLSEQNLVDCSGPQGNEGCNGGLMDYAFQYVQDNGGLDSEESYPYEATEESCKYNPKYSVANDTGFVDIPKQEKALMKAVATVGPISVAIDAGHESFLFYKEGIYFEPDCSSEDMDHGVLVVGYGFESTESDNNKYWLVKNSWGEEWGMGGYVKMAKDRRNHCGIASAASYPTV

One series has as its target Human Cathepsin L (Homo sapiens, UniProt P07711). To be noted: read-out: IC50 HCathepsin L; 0.01 ng/uL Cathepsin L, pH 5.5, 2 mM DTT.

As for `CC(C)(C)NC(=O)N[C@H](C(=O)N1C[C@@H]2CCC[C@@H]2[C@H]1C(=O)N[C@@H](C[C@@H]1CCNC1=O)C(=O)C(N)=O)C(C)(C)C`, the IC50 at Human Cathepsin L stood at 38 µM. The CC50 in the series on Huh7 cells and in the series with A549-ACE2 cells was above 100 µM throughout.

With `CC1(C)[C@@H]2[C@@H](C(=O)N[C@@H](C[C@@H]3CCNC3=O)C(=O)C(N)=O)N(C(=O)OCc3ccccc3)C[C@@H]21`, at Human Cathepsin L, the IC50 stood at 1.3 µM. Further, the CC50 in the series with Huh7 cells and in the series with A549-ACE2 cells was above 100 µM in each case. The “Caco-2 Permeability Papp A-B” value in the series on Caco-2 (A-B) is <0.2 10-6 cm/s. Also, the “Caco-2 Permeability Papp B-A” value in the series on Caco-2 (B-A) is given as 1.3 10-6 cm/s.

On to `CC(C)(C)C(=O)N[C@H](C(=O)N1C[C@H]2[C@@H]([C@H]1C(=O)N[C@@H](C[C@@H]1CCNC1=O)C(=O)C(N)=O)C2(C)C)C(C)(C)C`, for which the CC50 in the series with Huh7 cells and with A549-ACE2 cells was above 100 µM each time.

What is called IC50 is the concentration that inhibits the measured activity by half. As a reminder, the CC50 is the concentration that lowers cell viability or growth by half.
